In patent US7357914B2, “Use of metal chelates in human or animal feeding” (Agristudio S.R.L., priority 2002, dated 2008):

Assay: feeding test in weaned pigs, zinc source in food (growth, zinc retention, tissue minerals)
Type: in vivo
Experimental: Two test groups of pigs (Control and Test) of 35 days of age and weaned at 19 days, were administered a food differing only in the zinc source. […] The two groups of animals were balanced by nest, living weight and sex and were fed for 27 days. Other 4 animals were immediately sacrificed and a sampling was made of them according to the following procedure. The two groups of animals were weighed before starting the test and after 27 days. At the end of the test the pigs were sacrificed and stomach, intestine, left kidney and liver were removed from every pig. Stomach and intestine were emptied and weighed again so as to obtain the net weight of said organs. A sample of kidney, liver and brain was taken and frozen. Stomach, intestine, left kidney and liver were then put together with the remaining carcass and homogenized with a mixer. A sample was then taken from the mass thus obtained and frozen. The samples were then dehydrated with a dehydrating device and underwent chemical analysis. The level of zinc, copper and iron were determined on the lyophilized samples by atomic absorption spectroscopy. The body levels of zinc were referred to the product. On the basis of the body's “net” weight (i.e. without the content of the digestive tube) and of its content of zinc at test beginning and end it was possible to determine also daily zinc retention.

With `O=S(=O)([O-])[O-].[Zn+2]` [zinc sulfate, reference compound] the Conversion index (50 ppm zinc from the source in food) was 1.72 and the “Liver Iron content” value (lyophilized samples, atomic absorption) was 199.
